US11634702B2, “Cell signaling pathway activation by local AC electric field” (ARIZONA BOARD OF REGENTS ON BEHALF OF ARIZONA STATE …, priority 2018, dated 2023)

Tests used:
[1] = system: EGFR-Ras-ERK signaling pathway in MCF10A cells; assay: ERK activation by EGF chemical stimulation (ERKTR reporter), control groups of the blocker tests; type: cell-based; conditions: cetuximab 100 μg/mL, EGF 2 ng/mL, 96-well plate
[2] = system: EGFR-Ras-ERK signaling pathway in MCF10A cells; assay: ERK activation by AC EF stimulation (ERKTR reporter) in blocker tests; type: cell-based; conditions: cetuximab 100 μg/mL, ERKTR ratio

Substance: cetuximab
- effect on ERK activation by EGF stimulation [1]: blocked ERK activation
- effect on ERK activation under AC EF stimulation [2]: the AC EF could still activate ERK, although with an overall reduced contrast in the fluorescent signals
